Values quoted from earlier work, collected in patent US4444690A, “Technetium chelates” (priority 1982, dated 1984).

Conditions: in vivo; cited from earlier work

For “1,2-Bis(mercaptoacetamido)ethane [Tc-DADS]”, the “renal clearance in words” value is given as “cleared by the kidneys significantly faster than Tc-99m diethylenetriaminepentaacetic acid (Tc-99m DTPA, p<0.01) and slightly slower than I-131 o-iodohippurate (p>0.05)”.
